These results are taken from US5792775A (priority 1996, dated 1998).

Chains of the proteins cited; added tags and fusions are not shown. Lines headed by an entry give the natural chain unless they say otherwise; changes in a name come on top.
UniProt P08482: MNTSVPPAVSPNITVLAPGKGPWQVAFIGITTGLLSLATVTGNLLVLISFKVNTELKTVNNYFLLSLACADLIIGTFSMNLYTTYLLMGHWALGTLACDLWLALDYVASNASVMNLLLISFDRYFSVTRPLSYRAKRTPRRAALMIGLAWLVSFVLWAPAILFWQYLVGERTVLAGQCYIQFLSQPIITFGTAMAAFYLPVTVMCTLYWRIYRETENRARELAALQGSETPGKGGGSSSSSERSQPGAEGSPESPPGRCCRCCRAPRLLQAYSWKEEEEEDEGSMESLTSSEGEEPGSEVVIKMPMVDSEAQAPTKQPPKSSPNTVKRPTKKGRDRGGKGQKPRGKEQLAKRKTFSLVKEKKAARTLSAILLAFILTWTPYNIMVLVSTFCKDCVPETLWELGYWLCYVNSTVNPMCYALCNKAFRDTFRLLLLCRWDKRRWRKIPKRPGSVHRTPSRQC

In this experiment the target is muscarinic m1 receptors (Rattus norvegicus, UniProt P08482). The experiment can be described thus: biochemical. In kind it is binding.

As usually defined, the Ki is the equilibrium dissociation constant of an inhibitor or competing ligand from its target. Low values mean a stronger hold on the target, high ones a looser hold on the target. For `CN1[C@@H]2CC[C@H]1C[C@@H](OC(c1ccc(F)cc1)c1ccc(F)cc1)C2` [Compound 7c, 4',4"-difluoro-3α-(diphenylmethoxy)tropane], the Ki stood at 6.1 nM.
